We go through one substance from patent EP1923473B1, “Bis-diglycolamides (BISDGA) as new extractants for lanthanides [Ln(III)] and actinides [An(III)] from aqueous high-level wastes” (Universidad Autónoma de Madrid, priority 2006, dated 2008).

This assay can be described thus: Batch extraction from simulated HLLW from the PUREX process. The class given is physicochemical. Particulars: 0.1 mol/L in TPH/1-octanol (90:10). Here is the method: The feed solution used for the extraction tests is a simulated solution of an HLLW from the PUREX process, the composition of which is shown in Table 4. Table 4: Composition of the simulated HLLW-PUREX solution used for the extraction tests
The composition of the HLLW corresponds to a burn-up of 33 GWd/tHM, the generated volume of HLLW being 5000 1/t of fuel. […] Oxalic acid and N-(2-hydroxyethyl)ethylenediaminotriacetate (HEDTA) were also added before the extraction tests.
The concentrations of the stable elements were determined by mass spectrometry with an inductively coupled plasma source (ICP-MS) in a DRC Elan 6100 device of Perkin Elmer Sciex. The aqueous phase was measured directly after the appropriate dilution. The organic phase was analyzed after having mineralized the organic matter by microwave acid digestion and subsequent dilution.
The distribution coefficients were calculated for each element according to section C).
(§1) Extraction experiments were carried out with said simulated HLLW in a pure form and also adding oxalic acid and HEDTA to it.
as §1

With “2-Dioctylcarbamoylmethoxy-N-[3-[3-(2-dioctylcarbamoyl-methoxyacetylamino)propoxy]propyl]acetamide [Compound 18]”, the “Distribution coefficients Sr” value is 0.045 (Oxalic acid 0.2 mol/L, HEDTA 0.05 mol/L, TBP 0.5 mol/L); 0.043 (Oxalic acid 0.2 mol/L, HEDTA 0.05 mol/L, TBP No); 0.047 (Oxalic acid 0.3 mol/L, HEDTA 0.05 mol/L, TBP 0.5 mol/L); 0.041 (Oxalic acid 0.3 mol/L, HEDTA 0.05 mol/L, TBP No); 0.031 (Oxalic acid No, HEDTA No, TBP 0.5 mol/L); 0.033 (Oxalic acid No, HEDTA No, TBP No).
